Results on one molecule are retold here after paper PMC11325505, “Nitrogen-Containing Flavonoids—Preparation and Biological Activity” (ACS Omega, 2024).

In one test the test system is MRSA 1584. The test can be described thus: Mode of antimicrobial action with gentamicin, aac(6')/aph(2')-positive strain. Type of test: cell-based, Staphylococcus aureus. The source says:
Among the mechanisms of resistance to gentamicin previously described in S. aureus, the presence of enzymes that alter the structure of aminoglycosides is crucial. These enzymes can transfer nucleotides, phosphates, or acetyls to various −OH or −NH2 groups of gentamicin, preventing its subsequent interaction with the cellular target, i.e., the 30S ribosomal subunit. The bifunctional aminoglycoside-modifying enzyme with acetylation and phosphotransferase activities encoded by the gene aac(6’)/aph(2’), 4′,4″ adenyltransferase encoded by the aadD gene, and aminoglycoside O-phosphotransferase encoded by the gene aph(3′) are the most important.[37] […] For this reason, further testing continued using strains MRSA 3596 and MRSA 1584, which inactivate gentamicin only by a single mechanism (aadD and aac(6’)-aph(2’’), respectively).
(§1) Sensitization of multidrug-resistant clinical bacterial strains was performed according to ref[15]. […] The absorbance detected at 600 nm was then used to estimate the number of viable cells after 24 h of incubation at 37 °C and 120 rpm.
(§2) Experiments were performed with the respective number of replicates indicated in each figure/table. MIC was determined as IC70. Both IC70 and IC50 values were calculated using the following nonlinear regression in the software GraphPad Prism: […]

Another test deals with MRSA 3596. The test can be described thus: Mode of antimicrobial action with erythromycin or gentamicin, ermA- and aadD-positive strain. In kind it is cell-based, S. aureus.
Excerpt: (§3) Erythromycin is a macrolide antibiotic that inhibits proteosynthesis by binding to the 50S subunit of the ribosome. In Staphylococcus species, resistance to erythromycin is associated with the presence of methyltransferases (encoded by erm genes) that alter the ribosomal target site. Another typical mechanism of resistance to erythromycin is the presence of an ATP-dependent efflux pump encoded by the msr(A) gene or a major facilitator superfamily (MFS) pump encoded by the lmrS gene. Both efflux pumps reduce the concentration of erythromycin in the cell below the therapeutic dose by transporting it across the membrane to the extracellular space. Another erythromycin resistance gene is the mph(C) gene, the product of which is a phosphotransferase that alters the structure of macrolide antibiotics. […]
as §1, §2

For test [1], the system named is Methicilin-Resistant S. aureus 331 Strain. The experiment in a line: Mode of antimicrobial action with erythromycin, ermC-positive strain. Type of test: cell-based. The following applies: MRSA 331.
Excerpt: as §3, §1, §2

In the case of `O=c1c(O)c(-c2ccc(O)c(O)c2)oc2c(Nc3ccc(C(F)(F)F)cc3)c(O)cc(O)c12` [compound 8, 2-(3,4-Dihydroxyphenyl)-8-(4-(trifluoromethyl)anilino)-3,5,7-trihydroxy-4H–1-benzopyran-4-one], the “FIC (Fractional Inhibitory Concentration Index)” value is 0.97 ± 0.02 in the test on MRSA 1584, 0.22 ± 0.03 with MRSA 3596 (with erythromycin), 0.15 ± 0.01 in the test with MRSA 3596 (with gentamicin) and 2.30 ± 0.03 in test [1].
